Earlier results, collected in patent US20100278932A1, “POLYMER MICELLES CONTAINING SN-38 FOR THE TREATMENT OF CANCER” (Intezyne Technologies, Incorporated, priority 2009, published 2010).

Test system: various cancer cells
Conditions: in vitro; cited from earlier work

In the case of `CCc1c2c(nc3ccc(O)cc13)-c1cc3c(c(=O)n1C2)COC(=O)[C@]3(O)CC` [SN-38, 7-ethyl-10-hydroxycamptothecin], the “cytotoxic activity, potency relative to CPT-11” value is listed as “up to 1,000 fold”.
